From ChEMBL document CHEMBL4052703, “Cyclic tetrapeptide HDAC inhibitors as potential therapeutics for spinal muscular atrophy: Screening with iPSC-derived neuronal cells” (Bioorg Med Chem Lett, 2017)

Chains of the proteins cited; added tags and fusions are not shown. Lines headed by an entry give the natural chain unless they say otherwise; changes in a name come on top.
UniProt O15379: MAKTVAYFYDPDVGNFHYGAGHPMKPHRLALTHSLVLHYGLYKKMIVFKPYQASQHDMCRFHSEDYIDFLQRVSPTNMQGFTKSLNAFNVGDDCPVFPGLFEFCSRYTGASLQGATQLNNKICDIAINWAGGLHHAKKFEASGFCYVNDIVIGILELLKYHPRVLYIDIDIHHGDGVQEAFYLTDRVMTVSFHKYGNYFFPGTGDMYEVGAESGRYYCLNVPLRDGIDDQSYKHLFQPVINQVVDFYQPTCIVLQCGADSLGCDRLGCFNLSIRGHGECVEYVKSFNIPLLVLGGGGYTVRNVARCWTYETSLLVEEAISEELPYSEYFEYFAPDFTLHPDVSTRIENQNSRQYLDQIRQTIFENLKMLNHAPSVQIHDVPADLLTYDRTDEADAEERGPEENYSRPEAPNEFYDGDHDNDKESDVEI

Molecular target: Histone deacetylase 3 (Homo sapiens, UniProt O15379)
Test: Inhibition of HDAC3 (unknown origin)

CC(C)C[C@H]1CC(=O)N[C@@H](C)C(=O)N[C@@H](CCCCCC(=O)NO)C(=O)N[C@@H](Cc2c[nH]c3ccccc23)C(=O)N1
IC50: 8 nM
